## Antibody variant affinities, Ab-95 light chain, assay 2

Data: MIT Lincoln Laboratory AlphaSeq set, Engelhart et al. 2022, doi:10.1038/s41597-022-01779-4, as distributed in FLAb.

Target: peptide PDVDLGDISGINAS, taken from heptad repeat 2 (HR2) of SARS-CoV-2 spike.

Each scFv is VH, three GGGGS repeats, VL, as in the parent Ab-95, and differs from it in the CDRs of the light chain only.
VH: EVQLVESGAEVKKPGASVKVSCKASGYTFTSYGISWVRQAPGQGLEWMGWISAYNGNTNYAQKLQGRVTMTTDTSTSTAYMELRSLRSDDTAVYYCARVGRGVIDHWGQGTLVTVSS
VL: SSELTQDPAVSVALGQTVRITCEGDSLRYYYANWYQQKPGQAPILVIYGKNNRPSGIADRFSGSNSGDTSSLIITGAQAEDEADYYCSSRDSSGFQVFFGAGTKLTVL

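The parent was found by panning a naive human phage display library on the peptide. Variants in AAYL52 differ from the parent at up to three CDR positions; double and triple changes were sampled at random. Affinity was read by AlphaSeq, a pooled yeast mating assay with surface-displayed partners. The frequency of each diploid, read from paired DNA barcodes, reflects how well the two displayed proteins bind. Scores were corrected for input abundance and mapped to Kd with protein pairs of known affinity run in the same pool. Mating was done three times.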

Changes read parent residue, position, new residue, counted from the first residue of the VL shown.
Numbers give log10(Kd / nM), so 0 is 1 nM and 3 is 1 µM. Smaller is tighter.
The mean shown is taken over the replicates in which the pair was detected.
"ND" marks a missing value. The strain was present, yet no cells mated with the target were sequenced in that replicate, which points to weak or no binding.
Order: sorted from the lowest average up, undetected variants last.

| changes | replicates, log10 nM | log10 Kd (nM), mean |
|---|---|---|
| D25N/Y29N/S55F | 1.68 1.57 1.16 | 1.47 |
| S26I/Y30N/G94N | 1.97 1.82 1.62 | 1.80 |
| L27I/Y31P/Q96W | 1.85 2.40 1.88 | 2.04 |
| Y31M/N52A/S55F | 2.48 2.37 1.89 | 2.25 |
| D25L/S92M/S93N | 2.77 2.47 1.96 | 2.40 |
| A32S/V97N/F98R | 3.20 2.53 2.04 | 2.59 |
| Y29L/P54A/D91A | 2.84 2.91 2.62 | 2.79 |
| D25F/R28L/Y29Q | ND 3.47 2.62 | 3.05 |
| E23S/N52G/Q96F | 3.20 2.88 3.07 | 3.05 |
| L27P/R28G/Y29W | 3.35 2.75 3.06 | 3.05 |
| E23Y/Q96T/V97F | 3.52 3.01 2.88 | 3.14 |
| Y31R/S55G/F95D | 3.94 2.86 3.17 | 3.32 |
| G24V/S26E/F95C | 3.43 ND ND | 3.43 |
| S93Q/G94H/F95Q | 3.63 3.71 3.48 | 3.60 |
| D25R/Y31Q/S88R | ND 3.67 ND | 3.67 |
| G24T/S93Q/Q96E | ND ND 3.68 | 3.68 |
| R28G/G49W/S88T | 3.91 ND ND | 3.91 |
| A32R/S55F | 3.73 4.37 3.99 | 4.03 |
| S55T/S89N/R90E | 4.08 ND ND | 4.08 |
| S88K/Q96D/F98K | 3.48 4.81 4.13 | 4.14 |
| A32I/G49I/K50I | 4.22 ND ND | 4.22 |
| Y30P/N51P/Q96N | 4.82 3.91 ND | 4.37 |
| N52K/V97W | 4.48 ND ND | 4.48 |
| E23N/S26L/N52E | 4.68 ND ND | 4.68 |
| G49V/D91M/S92D | 4.62 5.25 ND | 4.93 |
| R28N/Y30D/N33F | 5.14 5.13 4.69 | 4.99 |
| G24A/R28I/D91A | 5.45 5.02 ND | 5.24 |
| L27G/D91L/Q96L | ND 6.08 ND | 6.08 |
| Y30W/N33Q/P54Q | ND ND ND | ND |
| A32D/S93K | ND ND ND | ND |
| P54A/S89H/R90T | ND ND ND | ND |
| A32Q/S55A/R90V | ND ND ND | ND |
| G49Y/P54R/S93E | ND ND ND | ND |
| N33V/S88W/S92W | ND ND ND | ND |
| S26C/K50F/Q96H | ND ND ND | ND |

The opening 4 entries, copied out:

changes	replicates, log10 nM	log10 Kd (nM), mean
D25N/Y29N/S55F	1.68 1.57 1.16	1.47
S26I/Y30N/G94N	1.97 1.82 1.62	1.80
L27I/Y31P/Q96W	1.85 2.40 1.88	2.04
Y31M/N52A/S55F	2.48 2.37 1.89	2.25

For reference, the parent read 2.31 as the reference entry and 2.25 as a member of this library.
Nonspecific signal, from three strains lacking the peptide, appeared in 28% of pairings of library AAYL52, centred on 3.91 (5% of these signals below 2.90); values are not corrected for it.